Literature values as cited in publication PMC11667226 (Theranostics, 2025).

Columns and labels:
EGFR [1] = settings: 12 HNSCC patients, closed-imaging device; ref [43]; cited from earlier work
From the text: In HNSCC, the presence of neck metastasis is the single most important prognostic factor for outcome, and the intended complete removal of regional metastatic disease by neck dissection is a key element of treatment.

EGFR [2] = settings: 65 patients with OSCC, ref De Wit et al. [39], cited from earlier work
From the text: From the clinical studies of the antibody-based agents (i.e., cetuximab-800CW, panitumumab-IRDye800) targeting EGFR in head and neck cancers, a major focus has been on margin assessment in closed-field imaging systems on the back-table or during the pathological processing postoperatively. […] Van Keulen et al. reported a 95% sensitiv ...

Substance: cetuximab-800CW: antibody-based optical imaging agent targeting EGFR
- Sensitivity for detection of metastasis (EGFR [1]): 97.2%
- Sensitivity for detection of close margins (<5mm) (EGFR [2]; threshold SBR 1.5): 70.3%
- Specificity for detection of close margins (<5mm) (EGFR [2]; threshold SBR 1.5): 76.1%
- Sensitivity for detection of positive margins (EGFR [2]; threshold SBR 2): 100%
- Specificity for detection of positive margins (EGFR [2]; threshold SBR 2): 85.9%
